Results published in patent publication US5026699A, “Use of 5,11-dihydro-6H-pyrido[2,3-b][1,4]-benzodiazepin-6-ones substituted in the 11-position for treating bradycardia and bradyarrhythmia in human and veterinary medicine” (Dr. Karl Thomae GmbH, priority 1988, dated 1991).

Biological target: muscarinic receptors, cerebral cortex
Experiment: Receptor binding test in vitro, 3H-NMS displacement, cerebral cortex homogenate
Settings: rat cerebral cortex homogenate 1:3000; 0.3 nanomolar 3H-NMS; 30° C., 45 minutes; read-out: Receptor Binding Tests IC50, Cortex

`CCN(CC)CC1CCCCN1CC(=O)N1c2ccccc2C(=O)Nc2cccnc21` (stereo not shown) [C, 11-[[2-[(diethylamino)methyl]-1-piperidinyl]acetyl]-5,11-dihydro-6H-pyrido[2,3-b][1,4]benzodiazepin-6-one, reference compound] was tested, and the IC50 was 1200 nM.
